PTAP TSG101 blk: blocks PTAP/TSG101 interaction to inhibit HIV-1 budding; Q99816; Fluorescence polarization, FITC-PTAP peptide / Tsg101 binding; Potency, µM (top dose mostly 115 µM), without a hit: at the top dose activity change, negative = inhibition, usual class: inhibitors; 340,000 tested, under 10 active; active means well fitted inhibition curve with a large enough effect in the main read-out, with a control signal flat, not every such curve was filed as active; inconclusive means small, poorly fitted or top-dose-only effect, or effect the other way, or a change in a side signal; inactive means no such curve, though single readings can be large or run the other way; further: potency means the concentration at half of the fitted maximal effect; % of control where 0% means no effect
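Steps: Tsg101 binding domain dispensed (10 uM final), compounds pinned in DMSO, FITC-labeled PTAP-motif peptide added (50 nM final); after 20 min binding at room temperature, polarization measured.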
DRD3 antagonist: antagonists of human D3 dopamine receptor; P35462; D3R cells, DiscoveRx beta-arrestin luminescence, antagonist mode; active compounds read low; max response, negative = inhibition, %; 2.5% of 360,000 active; in the data active means max response below about -50%; inconclusive means no clear call, values can overlap the other calls; further: on the % scale 0 is the no-effect control and ±100 the full control effect
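Cells plated overnight at 1500 cells/well, then exposed to library compounds with dopamine controls for 90 minutes at 37 degrees C. DiscoveRx reagent added for 30–60 minutes at room temperature; luminescence read, quantitative HTS format.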
MmCpn inh: blocks the Methanococcus maripaludis chaperonin Mm-Cpn; purified Mm-Cpn ATPase, ADP Transcreener TR-FRET; 0.031% of 330,000 active; AID 504842; Potency, µM (highest dose often 76.9 µM), for inactives: at the top dose activity, negative = inhibition, hits mostly inhibitors; active means well fitted inhibition curve with a large enough effect; inconclusive means small, poorly fitted or top-dose-only effect; further: potency means the concentration at half of the fitted maximal effect; on the % scale 0 is the no-effect control and ±100 the full control effect; nearly all actives have a fitted effect of over 80% in size
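Measured: ADP formation by purified Mm-CPN. Conditions: 25 nM protein, 10 uM ATP, Tris pH 7.4 with Mg2+, K+ and DTT, 37°C for 30 min. Detection: Transcreener HTRF after 30 min at room temperature.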
Rango dissoc inh: inhibitors of RanGTP-induced Rango-importin beta complex dissociation; Potency, µM (doses to about 46.1 µM), for the others: top-dose activity change, negative = inhibition; 0.071% of 340,000 active; Biochemical FRET Rango-importin beta, RanGTP-induced dissociation; AID 540253; further: potency means the concentration at half of the fitted maximal effect; % of control where 0% means no effect; nearly all actives have a fitted effect of over 45% in size
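Compounds sat 5 min at room temperature with 0.1 uM Rango biosensor plus 0.25 uM importin beta, then FRET pre-read. RanGTP-RCC1 (0.6 uM Ran, 2mM GTP, 0.2 uM RCC1) added for 45 min, and the CFP/YFP post-read measured blocked complex dissociation.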
D3 ag: agonists of human D3 dopamine receptor; P35462; D3R DiscoveRx beta-arrestin cells, luminescence, 90 min; max activation, %; 0.58% of 410,000 active; AID 652048; in the data active means max activation above about 30%; further: 0% is about no effect
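Agonist mode: compounds and dopamine controls were applied to plated cells for 90 min at 37 degrees C after an overnight attachment at 1500 cells/well. Luminescent read-out followed 30 - 60 minutes at room temperature with DiscoveRx detection reagent.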
Rango-impB inh: Rango-importin beta binding inhibition; Rango CFP/YFP FRET sensor + importin beta, 45 min; Potency, µM (highest dose often 92.2 µM), without a hit: at the top dose inhibition of complex formation; 0.031% of 340,000 active; Q14974;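 further: potency means the concentration at half of the fitted maximal effect; 0% = DMSO wells and 100% = buffer wells lacking importin beta; nearly all actives have a fitted effect of over 15% in size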
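Inhibition scored from the CFP 486 nm/YFP 530 nm FRET ratio 45 min after adding 0.125 microM importin beta to 50 nM Rango biosensor preincubated 5 min with compound (room temperature, PBS with DTT, Tween-20, BSA). No-importin wells as positive control.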
The depositor's hits bear a star; ? = inconclusive; / = no result; ! = repeats disagree; [ ] = another dose, or the depositor's remark. In the library only some 2.9% were active in any assay of this set; here they are far more common. Unless noted, the call rests on the fitted dose curve.

Fields: PTAP TSG101 blk, DRD3 antagonist, MmCpn inh, Rango dissoc inh, D3 ag, Rango-impB inh
1	COc1ccc(CC(=O)N2CCN(C)CC2)cc1
→ /, ?, -1%, -11%, 6, 2%
2	CC1=C[C@@H]2c3cccc4[nH]cc(c34)C[C@H]2N(C)C1
→ ?, -22, -2%, ?, 54*, ?
3	O=C(O)CCCCC1SCC2NC(=O)NC21 (stereo unspecified)
→ 1%, 0, 0%, -4%, -8, ?
4	O[C@H]1[C@H]2[C@H](O)CCCN2C[C@H]1O
→ /, /, /, /, -15, /
5	O=C(OC1CCN(CCCl)CC1)C(c1ccccc1)c1ccccc1
→ -2%, -95*, 1%, -10%, -96, 0%
6	C[N+]1(C)[C@@H]2CC[C@H]1CC(OC(=O)C(c1ccccc1)c1ccccc1)C2 (stereo partly specified)
→ -3%, 8, 0%, 6%, 4, 0%
7	COc1ccc(OC)c([C@@H](O)[C@H](C)NC(C)(C)C)c1
→ -4%, 19, 3%[15.4 µM], 0%, 14, -3%
8	COc1ccc(OC)c(C(O)C2CCCCN2)c1 (stereo unspecified)
→ -10%, -61*, 2%, 5%, -12, 1%
9	CC12CCCCC1=[N+]([O-])CN2O (stereo unspecified)
→ -6%, -62*, 1%, 5%, 1, -1%
10	CC(NCc1ccccc1Cl)C(O)c1ccccc1 (stereo unspecified)
→ -10%, ?, 1%, 1%, -22, 1%
11	CC(NCc1ccc(Cl)c(Cl)c1)C(O)c1ccccc1 (stereo unspecified)
→ -4%, -65*, 1%, 5%, -37, -1%
12	CC(=O)[C@H]1CC[C@H]2[C@@H]3CC[C@@H]4C[C@H](O)CC[C@]4(C)[C@H]3CC[C@]12C
→ /, /, /, /, -7, /
13	C#CCN1CC(=O)N(COC(=O)C2C(C=C(C)C)C2(C)C)C1=O (stereo unspecified)
→ /, /, /, /, 4, /
14	COc1cccc(CN2CCN(Cc3cccc(F)c3)CC2)c1
→ -3%, 0, -2%, 0%, -20, -1%
15	COc1cccc(C2(O)CCN(Cc3ccncc3)CC2)c1
→ 3%, -62*, -1%, 5%, -14, 1%
16	CC(C)Oc1ccc(CC2(CCc3ccncc3)C(=O)NC(=O)NC2=O)cc1
→ -2%, 2, 2%, 6%, 33*, 4%
17	COC(=O)[C@H]1[C@@H](OC(=O)c2ccccc2)C[C@@H]2CC[C@H]1N2C
→ /, /, /, /, -11, /
18	COc1ccccc1C1CC2CCC(C1OC(C)=O)N2Cc1ccccc1 (stereo unspecified)
→ -10%, -87*, 1%, 17%, -19, 1%
19	CCn1nc(/C=C/c2ccccc2)nc2c(=O)n(C)c(=O)nc1-2
→ -3%, ?, -1%, -14%, -10, 3%
20	CCn1nc(-c2cccs2)nc2c(=O)n(C)c(=O)nc1-2
→ 5%, -81*, 0%, -7%, -16, 0%

Record cards (already shown). Order of screens: PTAP TSG101 blk	DRD3 antagonist	MmCpn inh	Rango dissoc inh	D3 ag	Rango-impB inh
Record of COC(=O)[C@H]1[C@@H](OC(=O)c2ccccc2)C[C@@H]2CC[C@H]1N2C : /	/	/	/	-11	/
Record of C#CCN1CC(=O)N(COC(=O)C2C(C=C(C)C)C2(C)C)C1=O (stereo unspecified) : /	/	/	/	4	/

The main list resumes, repeating the three entries before the break.
Fields: PTAP TSG101 blk, DRD3 antagonist, MmCpn inh, Rango dissoc inh, D3 ag, Rango-impB inh
18	COc1ccccc1C1CC2CCC(C1OC(C)=O)N2Cc1ccccc1 (stereo unspecified)
→ -10%, -87*, 1%, 17%, -19, 1%
19	CCn1nc(/C=C/c2ccccc2)nc2c(=O)n(C)c(=O)nc1-2
→ -3%, ?, -1%, -14%, -10, 3%
20	CCn1nc(-c2cccs2)nc2c(=O)n(C)c(=O)nc1-2
→ 5%, -81*, 0%, -7%, -16, 0%
21	CCCN(CCC)CCc1c[nH]c2ccccc12
→ /, /, /, /, 2, /
22	COc1ccc(CN(CCc2c[nH]c3ccccc23)Cc2ccc(OC)cc2)cc1
→ -2%, -50*, /, -12%, -8, -2%
23	CCOc1c(Cl)cc(CNCCc2c[nH]c3ccccc23)cc1OC
→ -1%, -1, -8%, 11%, -4, -2%
24	CCOc1cc(CNCCc2c[nH]c3ccccc23)cc(Cl)c1OCC
→ 1%, -76*, 2%, -7%, -29, 1%
25	COc1cccc(CNCCc2c[nH]c3ccccc23)c1
→ -6%, -54*, 2%, 14%, -21, 1%
26	COc1ccc(CNCCc2c[nH]c3ccccc23)c(OC)c1C
→ -7%, -71*, 0%, 6%, -23, 1%
27	CCCCCCC(=O)CCCCCC/C=C/C[C@@H](O)[C@H](O)[C@@](N)(CO)C(=O)O
→ /, /, /, /, 2, /
28	C[C@H]1CC[C@@H]2[C@@H](C)[C@H]3[C@H](C[C@H]4[C@@H]5CC=C6CC(O[C@@H]7O[C@H](CO)[C@H](O)[C@H](O[C@@H]8O[C@H](CO)[C@@H](O)[C@H](O)[C@H]8O)[C@H]7O[C@H]7O[C@@H](C)[C@H](O)[C@@H](O)[C@H]7O)CC[C@]6(C)[C@H]5CC[C@]34C)N2C1 (stereo partly specified)
→ /, /, /, /, -1, /
29	O=C1CC(c2ccc(Br)cc2)c2c(c3ccccc3oc2=O)O1 (stereo unspecified)
→ /, /, /, /, 51*, /
30	OCCN(CCO)CCO
→ /, /, /, /, 6, /
31	c1ccc(CN2CCN(Cc3ccc4c(c3)OCCO4)CC2)cc1
→ -4%, -76*, 0%, 0%, -15, -4%
32	COc1ccccc1OCC(=O)N1CCN(Cc2ccc3c(c2)OCO3)CC1
→ 3%, -2, -2%, -24%, -2, -1%
33	O=C(Nc1nnc(SCc2ccccc2Cl)s1)C1COc2ccccc2O1 (stereo unspecified)
→ -5%, -59*, ?, 1%, -1, 1%
34	C=C[C@H]1CN2CC[C@H]1C[C@H]2[C@H](OC(=O)OCC)c1ccnc2ccc(OC)cc12
→ /, /, /, /, -11, /
35	CCOC(=O)[C@]12Cc3cc(C)ccc3[C@H]1N(C1CCCCC1)C(=O)c1cc(OC)ccc12
→ /, -64*, /, /, -10, /
36	CCCCCCC[n+]1ccc(-c2cc[n+](CCCCCCC)cc2)cc1
→ -1%, -2, -2%, 0%, -14, 5%
37	CCCCCCCCCCCCCCCC[n+]1ccccc1
→ 0%, ?, /, ?, /, 65µM*!
38	CCO/N=C(\CC)C1=C(O)CC(c2c(C)cc(C)cc2C)CC1=O (stereo unspecified)
→ /, /, /, /, 8, /
39	Cc1cc(C)cc(-n2c(C)cc(/C=C3\C(=O)NC(=O)N(C)C3=O)c2C)c1
→ -7%, -65*, -6%, -10%, -11, -2%
40	Cc1cc(/C=C2\C(=O)NC(=O)N(c3cccc(F)c3)C2=O)c(C)n1-c1cc(C(=O)O)cc(C(=O)O)c1
→ 1%, 13, 0%, 2%, 2, -1%
41	CC(C)(C)c1ccc(O)c(CN2CCN(c3ccccc3)CC2)c1
→ -3%, -71*, 0%, 2%, -7, -1%
42	Clc1ccccc1CN1CCN(c2ccccc2)CC1
→ -8%, -26, ?, -7%, -17, -5%
43	C[C@@H]1O[C@@H](O[C@@H]2C=C3CC[C@@H]4C(CC[C@]5(C)[C@@H](c6ccc(=O)oc6)CC[C@]45O)[C@@]3(C)CC2)[C@H](O)[C@H](O)[C@H]1O (stereo partly specified)
→ -3%, 113, 0%, 23%, 36*, 1%
